{
  "source": "paper PMC6458391",
  "about": "“Deep eutectic solvent for an expeditious sono-synthesis of novel series of bis-quinazolin-4-one derivatives as potential anti-cancer agents” (Royal Society Open Science, 2019)",
  "system": "MCF-7 (breast cancer) cell line",
  "details": "for IC50: read-out: IC50 MCF-7, MTT, 48 h drug treatment, MCF-7",
  "data": [
    {"smiles": "Cc1nc2ccccc2c(=O)n1[C@H]1CC[C@H](n2c(C)nc3ccccc3c2=O)CC1", "note": "[Compound 3a, 3,3′-((1R,4R)-Cyclohexane-1,4-diyl)bis(2-methylquinazolin-4(3H)-one)]", "values": [
      {"measurement": "IC50", "value": 9.78, "unit": "µM"}
    ]},
    {"smiles": "Cc1ccc2nc(C)n([C@H]3CC[C@H](n4c(C)nc5ccc(C)cc5c4=O)CC3)c(=O)c2c1", "note": "[Compound 3b, 3,3′-((1R,4R)-Cyclohexane-1,4-diyl)bis(2,6-dimethylquinazolin-4(3H)-one)]", "values": [
      {"measurement": "IC50", "value": 12.7, "unit": "µM"}
    ]},
    {"smiles": "Cc1nc2ccc(Cl)cc2c(=O)n1[C@H]1CC[C@H](n2c(C)nc3ccc(Cl)cc3c2=O)CC1", "note": "[Compound 3c, 3,3′-((1R,4R)-Cyclohexane-1,4-diyl)bis(6-chloro-2-methylquinazolin-4(3H)-one)]", "values": [
      {"measurement": "IC50", "value": 9.05, "unit": "µM"}
    ]},
    {"smiles": "Cc1nc2ccc(F)cc2c(=O)n1[C@H]1CC[C@H](n2c(C)nc3ccc(F)cc3c2=O)CC1", "note": "[Compound 3d, 3,3'-((1R,4R)-Cyclohexane-1,4-diyl)bis(6-fluoro-2-methylquinazolin-4(3H)-one)]", "values": [
      {"measurement": "IC50", "value": 7.11, "unit": "µM"}
    ]},
    {"smiles": "Cc1nc2ccc([N+](=O)[O-])cc2c(=O)n1[C@H]1CC[C@H](n2c(C)nc3ccc([N+](=O)[O-])cc3c2=O)CC1", "note": "[Compound 3e, 3,3′-((1R,4R)-Cyclohexane-1,4-diyl)bis(2-methyl-6-nitroquinazolin-4(3H)-one)]", "values": [
      {"measurement": "IC50", "value": 4.55, "unit": "µM"}
    ]},
    {"smiles": "Cc1nc2ccccc2c(=O)n1Cc1ccc(Cn2c(C)nc3ccccc3c2=O)cc1", "note": "[Compound 4a, 3,3′-(1,4-Phenylenebis(methylene))bis(2-methylquinazolin-4(3H)-one)]", "values": [
      {"measurement": "IC50", "value": 5.38, "unit": "µM"}
    ]},
    {"smiles": "Cc1ccc2nc(C)n(Cc3ccc(Cn4c(C)nc5ccc(C)cc5c4=O)cc3)c(=O)c2c1", "note": "[Compound 4b, 3,3′-(1,4-Phenylenebis(methylene))bis(2,6-dimethylquinazolin-4(3H)-one)]", "values": [
      {"measurement": "IC50", "value": 6.73, "unit": "µM"}
    ]},
    {"smiles": "Cc1nc2ccc(Cl)cc2c(=O)n1Cc1ccc(Cn2c(C)nc3ccc(Cl)cc3c2=O)cc1", "note": "[Compound 4c, 3,3′-(1,4-Phenylenebis(methylene))bis(6-chloro-2-methylquinazolin-4(3H)-one)]", "values": [
      {"measurement": "IC50", "value": 4.65, "unit": "µM"}
    ]},
    {"smiles": "Cc1nc2ccc(F)cc2c(=O)n1Cc1ccc(Cn2c(C)nc3ccc(F)cc3c2=O)cc1", "note": "[Compound 4d, 3,3′-(1,4-Phenylenebis(methylene))bis(6-fluoro-2-methylquinazolin-4(3H)-one)]", "values": [
      {"measurement": "IC50", "value": 6.19, "unit": "µM"}
    ]},
    {"smiles": "Cc1nc2ccc([N+](=O)[O-])cc2c(=O)n1Cc1ccc(Cn2c(C)nc3ccc([N+](=O)[O-])cc3c2=O)cc1", "note": "[Compound 4e, 3,3′-(1,4-Phenylenebis(methylene))bis(2-methyl-6-nitroquinazolin-4(3H)-one)]", "values": [
      {"measurement": "IC50", "value": 2.75, "unit": "µM"}
    ]},
    {"smiles": "Cc1nc2ccccc2c(=O)n1CCn1c(C)nc2ccccc2c1=O", "note": "[Compound 5a, 3,3′-(Ethane-1,2-diyl)bis(2-methylquinazolin-4(3H)-one)]", "values": [
      {"measurement": "IC50", "value": 9.79, "unit": "µM"}
    ]},
    {"smiles": "Cc1ccc2nc(C)n(CCn3c(C)nc4ccc(C)cc4c3=O)c(=O)c2c1", "note": "[Compound 5b, 3,3′-(Ethane-1,2-diyl)bis(2,6-dimethylquinazolin-4(3H)-one)]", "values": [
      {"measurement": "IC50", "value": 13.6, "unit": "µM"}
    ]},
    {"smiles": "Cc1nc2ccc(Cl)cc2c(=O)n1CCn1c(C)nc2ccc(Cl)cc2c1=O", "note": "[Compound 5c, 3,3′-(Ethane-1,2-diyl)bis(6-chloro-2-methylquinazolin-4(3H)-one)]", "values": [
      {"measurement": "IC50", "value": 6.12, "unit": "µM"}
    ]},
    {"smiles": "Cc1nc2ccc(F)cc2c(=O)n1CCn1c(C)nc2ccc(F)cc2c1=O", "note": "[Compound 5d, 3,3′-(Ethane-1,2-diyl)bis(6-fluoro-2-methylquinazolin-4(3H)-one)]", "values": [
      {"measurement": "IC50", "value": 5.39, "unit": "µM"}
    ]},
    {"smiles": "Cc1nc2ccc([N+](=O)[O-])cc2c(=O)n1CCn1c(C)nc2ccc([N+](=O)[O-])cc2c1=O", "note": "[Compound 5e, 3,3′-(Ethane-1,2-diyl)bis(2-methyl-6-nitroquinazolin-4(3H)-one)]", "values": [
      {"measurement": "IC50", "value": 5.21, "unit": "µM"}
    ]},
    {"smiles": "Cc1nc2ccccc2c(=O)n1-c1ccc(-n2c(C)nc3ccccc3c2=O)cc1", "note": "[Compound 6a, 3,3′-(1,4-Phenylene)bis(2-methylquinazolin-4(3H)-one)]", "values": [
      {"measurement": "IC50", "value": 6.98, "unit": "µM"}
    ]},
    {"smiles": "Cc1ccc2nc(C)n(-c3ccc(-n4c(C)nc5ccc(C)cc5c4=O)cc3)c(=O)c2c1", "note": "[Compound 6b, 3,3′-(1,4-Phenylene)bis(2,6-dimethylquinazolin-4(3H)-one)]", "values": [
      {"measurement": "IC50", "value": 7.48, "unit": "µM"}
    ]},
    {"smiles": "Cc1nc2ccc(Cl)cc2c(=O)n1-c1ccc(-n2c(C)nc3ccc(Cl)cc3c2=O)cc1", "note": "[Compound 6c, 3,3′-(1,4-Phenylene)bis(6-chloro-2-methylquinazolin-4(3H)-one)]", "values": [
      {"measurement": "IC50", "value": 5.53, "unit": "µM"}
    ]},
    {"smiles": "Cc1nc2ccc(F)cc2c(=O)n1-c1ccc(-n2c(C)nc3ccc(F)cc3c2=O)cc1", "note": "[Compound 6d, 3,3′-(1,4-Phenylene)bis(6-fluoro-2-methylquinazolin-4(3H)-one)]", "values": [
      {"measurement": "IC50", "value": 5.7, "unit": "µM"}
    ]},
    {"smiles": "Cc1nc2ccc([N+](=O)[O-])cc2c(=O)n1-c1ccc(-n2c(C)nc3ccc([N+](=O)[O-])cc3c2=O)cc1", "note": "[Compound 6e, 3,3′-(1,4-Phenylene)bis(2-methyl-6-nitroquinazolin-4(3H)-one)]", "values": [
      {"measurement": "IC50", "value": 2.73, "unit": "µM"}
    ]},
    {"smiles": "Cc1nc2ccccc2c(=O)n1-c1ccc(S(=O)(=O)c2ccc(-n3c(C)nc4ccccc4c3=O)cc2)cc1", "note": "[Compound 7a, 3,3′-(Sulfonylbis(4,1-phenylene))bis(2-methylquinazolin-4(3H)-one)]", "values": [
      {"measurement": "IC50", "value": 4.24, "unit": "µM"}
    ]},
    {"smiles": "Cc1ccc2nc(C)n(-c3ccc(S(=O)(=O)c4ccc(-n5c(C)nc6ccc(C)cc6c5=O)cc4)cc3)c(=O)c2c1", "note": "[Compound 7b, 3,3′-(Sulfonylbis(4,1-phenylene))bis(2,6-dimethylquinazolin-4(3H)-one)]", "values": [
      {"measurement": "IC50", "value": 5.78, "unit": "µM"}
    ]},
    {"smiles": "Cc1nc2ccc(Cl)cc2c(=O)n1-c1ccc(S(=O)(=O)c2ccc(-n3c(C)nc4ccc(Cl)cc4c3=O)cc2)cc1", "note": "[Compound 7c, 3,3′-(Sulfonylbis(4,1-phenylene))bis(6-chloro-2-methylquinazolin-4(3H)-one)]", "values": [
      {"measurement": "IC50", "value": 3.91, "unit": "µM"}
    ]},
    {"smiles": "Cc1nc2ccc(F)cc2c(=O)n1-c1ccc(S(=O)(=O)c2ccc(-n3c(C)nc4ccc(F)cc4c3=O)cc2)cc1", "note": "[Compound 7d, 3,3′-(Sulfonylbis(4,1-phenylene))bis(6-fluoro-2-methylquinazolin-4(3H)-one)]", "values": [
      {"measurement": "IC50", "value": 1.46, "unit": "µM"}
    ]},
    {"smiles": "Cc1nc2ccc([N+](=O)[O-])cc2c(=O)n1-c1ccc(S(=O)(=O)c2ccc(-n3c(C)nc4ccc([N+](=O)[O-])cc4c3=O)cc2)cc1", "note": "[Compound 7e, 3,3′-(Sulfonylbis(4,1-phenylene))bis(2-methyl-6-nitroquinazolin-4(3H)-one)]", "values": [
      {"measurement": "potency against MCF-7 relative to sorafenib", "setting": "from IC50 values", "value": "approximately thrice as potent as sorafenib"},
      {"measurement": "IC50", "value": 1.26, "unit": "µM"}
    ]},
    {"smiles": "Cc1nc2ccccc2c(=O)n1-c1cccc(-n2c(C)nc3ccccc3c2=O)c1", "note": "[Compound 11, 3,3′-(1,3-Phenylene)bis(2-methylquinazolin-4(3H)-one)]", "values": [
      {"measurement": "IC50", "value": 5.42, "unit": "µM"}
    ]},
    {"smiles": "CNC(=O)c1cc(Oc2ccc(NC(=O)Nc3ccc(Cl)c(C(F)(F)F)c3)cc2)ccn1", "note": "[Sorafenib, sorafenib, reference compound]", "values": [
      {"measurement": "IC50", "value": 4.03, "unit": "µM"}
    ]}
  ]
}
